Reference: ChEMBL document CHEMBL1132279, “Axially chiral 1,7-naphthyridine-6-carboxamide derivatives as orally active tachykinin NK(1) receptor antagonists: synthesis, antagonistic activity, and effects on bladder functions” (J Med Chem, 1999)

Amino acid sequences for entries named in this document (tags omitted).
UniProt P25103, whole entry: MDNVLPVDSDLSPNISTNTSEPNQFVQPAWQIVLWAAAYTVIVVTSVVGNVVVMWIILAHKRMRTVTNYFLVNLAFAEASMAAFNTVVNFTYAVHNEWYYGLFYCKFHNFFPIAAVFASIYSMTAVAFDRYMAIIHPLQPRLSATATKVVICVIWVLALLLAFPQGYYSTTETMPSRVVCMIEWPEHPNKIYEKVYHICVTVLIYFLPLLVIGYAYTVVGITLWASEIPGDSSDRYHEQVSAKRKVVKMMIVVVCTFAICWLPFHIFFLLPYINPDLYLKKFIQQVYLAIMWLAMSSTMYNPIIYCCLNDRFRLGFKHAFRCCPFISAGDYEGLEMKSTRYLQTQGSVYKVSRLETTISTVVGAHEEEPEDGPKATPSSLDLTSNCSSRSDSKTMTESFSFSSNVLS

Target: Substance-P receptor (Homo sapiens, UniProt P25103)
Test: Tachykinin receptor 1 antagonistic activity as ability to inhibit [125I]BH-SP binding in human IM-9 cells (lymphoblast cells)
Format: cell-based
Summary of the method: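 [125I]Bolton-Hunter-SP binding to human IM-9 lymphoblast cells; IC50 as mean ± SD from at least three independent experiments (n = 3–6) run in duplicate, unless otherwise noted.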

Row | IC50 [nM] | SMILES
1 | 0.45 | Cc1ccc(-c2c3n(c(=O)c4ncccc24)CC[C@@H](C)CN(Cc2cc(C(F)(F)F)cc(C(F)(F)F)c2)C3=O)cc1 (stereo in doubt; (aR,9R)-8b)
2 | 8.6 | Cc1ccc(-c2c3n(c(=O)c4ncccc24)CC[C@H](C)CN(Cc2cc(C(F)(F)F)cc(C(F)(F)F)c2)C3=O)cc1 (stereo in doubt; (aR,9S)-8b) [7-(3,5-BIS-TRIFLUOROMETHYL-BENZYL)-9-METHYL-5-P-TOLYL-8,9,10,11-TETRAHYDRO-7H-1,7,11A-TRIAZA-CYCLOOCTA[B]NAPHTHALENE-6,12-DIONE (ATROPISOMERIC MIX)]
3 | 20 | Cc1ccc(-c2c3n(c(=O)c4ncccc24)CC[C@@H](C)CN(Cc2cc(C(F)(F)F)cc(C(F)(F)F)c2)C3=O)cc1 (stereo in doubt; (aS,9R)-8b)
4 | 340 | Cc1ccc(-c2c3n(c(=O)c4ncccc24)CC[C@H](C)CN(Cc2cc(C(F)(F)F)cc(C(F)(F)F)c2)C3=O)cc1 (stereo in doubt; (aS,9S)-8b) [7-(3,5-BIS-TRIFLUOROMETHYL-BENZYL)-9-METHYL-5-P-TOLYL-8,9,10,11-TETRAHYDRO-7H-1,7,11A-TRIAZA-CYCLOOCTA[B]NAPHTHALENE-6,12-DIONE (ATROPISOMERIC MIX)]
